Reference: ChEMBL document CHEMBL1821671, “Synthesis and in vitro evaluation of new analogues as inhibitors for phosphodiesterase 10A” (Eur J Med Chem, 2011)

Experiments:
[1] = target: cAMP and cAMP-inhibited cGMP 3',5'-cyclic phosphodiesterase 10A (Homo sapiens, UniProt Q9Y233); assay: Inhibition of human recombinant PDE10A assessed as reduction in hydrolysis of [3H]cAMP by scintillation proximity assay
Outline: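 Recombinant human PDE10A, fixed amount, in [³H]cAMP scintillation proximity assay; substrate at 1/3 Km with varied inhibitor concentrations. Reaction started by enzyme addition, incubated to ~30% substrate turnover, stopped with yttrium silicate SPA beads, counted after settling. Signal expressed as % of uninhibited control versus concentration to fit IC50; each compound assayed at least twice.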

[2] = target: T1, cAMP and cAMP-inhibited cGMP 3',5'-cyclic phosphodiesterase 10A (Rattus norvegicus, UniProt Q9QYJ6); assay: Inhibition of rat PDE10A
T1 sequence (Q9QYJ6 whole entry): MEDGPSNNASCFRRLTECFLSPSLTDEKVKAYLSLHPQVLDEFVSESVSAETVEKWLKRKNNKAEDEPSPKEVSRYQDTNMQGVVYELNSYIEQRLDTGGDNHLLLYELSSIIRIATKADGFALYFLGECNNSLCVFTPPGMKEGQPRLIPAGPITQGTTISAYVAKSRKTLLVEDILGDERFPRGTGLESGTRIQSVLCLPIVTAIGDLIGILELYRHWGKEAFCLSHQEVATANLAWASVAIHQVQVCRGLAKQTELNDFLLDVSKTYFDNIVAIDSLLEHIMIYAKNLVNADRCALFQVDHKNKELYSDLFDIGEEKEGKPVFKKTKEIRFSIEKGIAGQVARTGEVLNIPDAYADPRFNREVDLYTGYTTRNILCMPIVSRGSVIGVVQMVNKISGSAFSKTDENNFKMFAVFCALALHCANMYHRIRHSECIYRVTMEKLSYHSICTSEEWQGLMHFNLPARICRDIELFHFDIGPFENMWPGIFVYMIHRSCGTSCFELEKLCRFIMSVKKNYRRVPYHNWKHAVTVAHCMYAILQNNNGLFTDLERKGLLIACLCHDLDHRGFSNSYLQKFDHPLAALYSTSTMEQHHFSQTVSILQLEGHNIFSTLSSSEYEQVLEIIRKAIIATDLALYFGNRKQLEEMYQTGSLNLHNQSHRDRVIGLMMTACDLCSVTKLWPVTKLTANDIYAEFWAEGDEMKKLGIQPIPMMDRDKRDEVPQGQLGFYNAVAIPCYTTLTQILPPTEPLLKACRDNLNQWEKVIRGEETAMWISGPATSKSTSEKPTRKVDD

COc1ccc(Cc2nccc3cc(OC)c(OC)cc23)cc1OC [PAPAVERINE]
IC50 [1]: 21 nM | IC50 [2]: 36 nM
